The assay has as its target T1, mouse endothelin receptor type A (mETA), P9 fusion, purified and solubilised in sarkosyl (mouse, UniProt Q61614).
T1 construct: mouse endothelin receptor type A, gene synthesised by GenScript (NCBI Gene ID 13617); also called mouse ETA; source: E. coli BL21(DE3) with pP9-mETA, membrane fraction dissolved in 0.5% sarkosyl, purified (Ni-NTA, PD-10)
The experiment in a line: ELISA; Gαi3 (4 μg/ml in 0.05 M Na2CO3 pH 9.6) coated, hETA or mETA (4 μg/ml, in 0.5% sarkosyl) captured, AG8 IgG serially diluted in PBS pH 7.4 added, washes in PBST, detection with goat anti-human IgG (H+L)-HRP; apparent affinities. To be noted: both partners purified. Background: ELISA stands for enzyme-linked immunosorbent assay.

Chains of the proteins cited; added tags and fusions are not shown. Residues count along the entry.
UniProt Q61614, 21-427: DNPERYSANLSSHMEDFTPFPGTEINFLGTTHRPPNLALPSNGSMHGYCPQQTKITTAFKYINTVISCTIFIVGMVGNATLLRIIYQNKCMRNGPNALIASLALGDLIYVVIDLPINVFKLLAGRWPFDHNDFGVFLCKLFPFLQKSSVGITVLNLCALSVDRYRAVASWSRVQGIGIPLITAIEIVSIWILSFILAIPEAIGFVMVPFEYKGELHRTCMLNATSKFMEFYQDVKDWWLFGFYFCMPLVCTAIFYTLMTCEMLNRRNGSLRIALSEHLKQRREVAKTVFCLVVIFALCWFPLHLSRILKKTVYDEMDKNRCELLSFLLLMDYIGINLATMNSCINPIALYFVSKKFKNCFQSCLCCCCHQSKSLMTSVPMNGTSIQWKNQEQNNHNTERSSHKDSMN

B1: AG8 IgG (full-length human IgG) (antibody, V domains shown)
VH: EVQLVESGAEVRKPGASVKVSCKASGYTFTSSDINWIRQATGQGLEWMGYMNPKNGNTDYAQKFQGRISMTRDSSISTAYMELSSLRSEDTAVYYCAKDRYGSGTYGFGMDVWGPGTLVTVSS
VL: DIVMTQSPSAMSASVGDRVSITCRASQGINNYLAWFQQKPGKVPKRLMDVGSILQSGIPSRFRGRGSGTQFTLTISSLQAEDSGTYFCLQHNTYPLTFGPGTKVEIK
For B1, the binding result is “binds”.

Values taken from article PMC8492878, “A human antibody against human endothelin receptor type A that exhibits antitumor potency” (Experimental & Molecular Medicine, 2021).
